Patent publication US10717731B2, “Nitrogen-containing aromatic heterocyclic compound” (MITSUBISHI TANABE PHARMA CORPORATION, priority 2015, dated 2020)

The chains behind the UniProt entries cited, without tags or fusion partners. Residues count along the entry.
UniProt P19099, 25-503 limits assumed: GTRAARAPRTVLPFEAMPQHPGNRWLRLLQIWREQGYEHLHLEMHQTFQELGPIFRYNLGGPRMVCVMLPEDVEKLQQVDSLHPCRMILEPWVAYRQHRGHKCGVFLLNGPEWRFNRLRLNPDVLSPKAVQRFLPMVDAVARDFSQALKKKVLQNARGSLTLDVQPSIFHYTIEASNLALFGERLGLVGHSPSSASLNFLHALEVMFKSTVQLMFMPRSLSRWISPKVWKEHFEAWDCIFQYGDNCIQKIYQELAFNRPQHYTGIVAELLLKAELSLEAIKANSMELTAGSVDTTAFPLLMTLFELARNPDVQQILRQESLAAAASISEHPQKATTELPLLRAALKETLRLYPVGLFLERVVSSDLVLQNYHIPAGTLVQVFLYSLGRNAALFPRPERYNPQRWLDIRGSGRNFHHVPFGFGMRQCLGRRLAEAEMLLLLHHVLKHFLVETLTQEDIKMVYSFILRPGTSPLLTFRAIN

Target: human CYP11B2 (Homo sapiens, UniProt P19099)
Experiment: Inhibitory effect on hCYP11B2: aldosterone production in mitochondrial fraction of V79 cells stably expressing human CYP11B2, HTRF
Type: biochemical
Conditions: read-out: hCyp11B2 IC50; 0.5 μmol/L deoxycorticosterone, 150 μmol/L NADPH, 1.5-2 hours at room temperature
Protocol: Experimental Example 1 (Inhibitory Effect on hCYP11B2)
The pcDNA3.1-human CYP11B2 plasmid was transfected into a Chinese hamster lung fibroblast V79 cell line to produce a cell line stably expressing human CYP11B2 gene.
The cells were cultured and grown in the Dulbecco's modified Eagle's/Ham's medium supplemented with 10% fetal bovine serum and 1% G418 disulfate solution under the environment of 37° C., 95% air, and 5% CO2, and the grown cells were harvested.
Then, the cells were fractionated to obtain mitochondria by reference to a method described in Chabre et al. JCE & M 85 (11) 4060-68, 2000. In particular, the cells suspended in a 5 mmol/L Tris-HCl buffer (pH 7.4) containing 250 mmol/L sucrose were homogenized in a Teflon (Registered Trademark) Potter Elvehjem homogenizer, and then the suspension was centrifuged (800×g, 15 min.). […]
The mitochondrial fraction diluted with a buffer containing 10 mmol/L KH2PO4, 10 mmol/L Tris, 20 mmol/L KCl, 25 mmol/L sucrose, 5 mmol/L MgCl2, and 0.05% bovine serum albumin was dispensed to a 96-well plate. […] An amount of the produced aldosterone in the incubated solution was determined by using HTRF (Homogeneous Time Resolved Fluorescence) method.
IC50 (nmol/L) was calculated by analyzing the aldosterone production inhibition rate (%) of each concentration of compounds by non-linear regression to a logistic curve.

- IC50: 10 nM
SMILES: O=C(CN1CCN(c2cc(-c3ccc(F)cc3)cnn2)CC1)N[C@@H]1CCNC[C@H]1F (relative stereo)
